Measured values taken from patent US10188742B2, “Bi-specific antibodies and uses thereof” (ACADEMIA SINICA, priority 2014, dated 2019).

Key:
A431 cells (EGFR+) = test: Cell ELISA: accumulation of PEGylated compounds via bi-functional antibodies; format: cell-based, human; settings: FIG. 30B
Method: (§1) In this example, the bi-functional activity of BsAbs of example 4.1 was investigated. Briefly, SKBR-3 human breast adenocarcinoma cells, which overexpress the HER2/c-erb-2 gene product, were coated in 96-well microtiter plates; then Herceptin/h-αPEG antibodies and control Herceptin antibodies were added to the microtiter plates. After the unbound bi-functional antibodies were washed out, PEGylated liposomes containing doxorubicin therein (herein Lipo-DOX) were added to the wells. Binding of the PEGylated compounds was determined by ELISA.

[1] = test system: SKBR-3 human breast adenocarcinoma cells; test: Cell ELISA: binding of Lipo-DOX via bi-functional antibodies; format: cell-based; settings: FIG. 30A
Method: as §1

Row | Substance | accumulation of PEGylated compounds on the surface of A431 cells via antibody (A431 cells (EGFR+)) | binding of Lipo-DOX to SKBR-3 cells via antibody [1]
1 | Erbitux: commercial available targeted antibody, control (EGFR) | but not the control Erbitux antibodies | –
2 | Herceptin: commercial available targeted antibody, control (HER2) | – | but not control Herceptin antibodies
